The values that follow come from ChEMBL document CHEMBL1142862, “Selective NR1/2B N-methyl-D-aspartate receptor antagonists among indole-2-carboxamides and benzimidazole-2-carboxamides” (J Med Chem, 2007).

Protein sequences, listed by entry. Tags and fused reporters are not part of them.
UniProt Q00960, whole entry: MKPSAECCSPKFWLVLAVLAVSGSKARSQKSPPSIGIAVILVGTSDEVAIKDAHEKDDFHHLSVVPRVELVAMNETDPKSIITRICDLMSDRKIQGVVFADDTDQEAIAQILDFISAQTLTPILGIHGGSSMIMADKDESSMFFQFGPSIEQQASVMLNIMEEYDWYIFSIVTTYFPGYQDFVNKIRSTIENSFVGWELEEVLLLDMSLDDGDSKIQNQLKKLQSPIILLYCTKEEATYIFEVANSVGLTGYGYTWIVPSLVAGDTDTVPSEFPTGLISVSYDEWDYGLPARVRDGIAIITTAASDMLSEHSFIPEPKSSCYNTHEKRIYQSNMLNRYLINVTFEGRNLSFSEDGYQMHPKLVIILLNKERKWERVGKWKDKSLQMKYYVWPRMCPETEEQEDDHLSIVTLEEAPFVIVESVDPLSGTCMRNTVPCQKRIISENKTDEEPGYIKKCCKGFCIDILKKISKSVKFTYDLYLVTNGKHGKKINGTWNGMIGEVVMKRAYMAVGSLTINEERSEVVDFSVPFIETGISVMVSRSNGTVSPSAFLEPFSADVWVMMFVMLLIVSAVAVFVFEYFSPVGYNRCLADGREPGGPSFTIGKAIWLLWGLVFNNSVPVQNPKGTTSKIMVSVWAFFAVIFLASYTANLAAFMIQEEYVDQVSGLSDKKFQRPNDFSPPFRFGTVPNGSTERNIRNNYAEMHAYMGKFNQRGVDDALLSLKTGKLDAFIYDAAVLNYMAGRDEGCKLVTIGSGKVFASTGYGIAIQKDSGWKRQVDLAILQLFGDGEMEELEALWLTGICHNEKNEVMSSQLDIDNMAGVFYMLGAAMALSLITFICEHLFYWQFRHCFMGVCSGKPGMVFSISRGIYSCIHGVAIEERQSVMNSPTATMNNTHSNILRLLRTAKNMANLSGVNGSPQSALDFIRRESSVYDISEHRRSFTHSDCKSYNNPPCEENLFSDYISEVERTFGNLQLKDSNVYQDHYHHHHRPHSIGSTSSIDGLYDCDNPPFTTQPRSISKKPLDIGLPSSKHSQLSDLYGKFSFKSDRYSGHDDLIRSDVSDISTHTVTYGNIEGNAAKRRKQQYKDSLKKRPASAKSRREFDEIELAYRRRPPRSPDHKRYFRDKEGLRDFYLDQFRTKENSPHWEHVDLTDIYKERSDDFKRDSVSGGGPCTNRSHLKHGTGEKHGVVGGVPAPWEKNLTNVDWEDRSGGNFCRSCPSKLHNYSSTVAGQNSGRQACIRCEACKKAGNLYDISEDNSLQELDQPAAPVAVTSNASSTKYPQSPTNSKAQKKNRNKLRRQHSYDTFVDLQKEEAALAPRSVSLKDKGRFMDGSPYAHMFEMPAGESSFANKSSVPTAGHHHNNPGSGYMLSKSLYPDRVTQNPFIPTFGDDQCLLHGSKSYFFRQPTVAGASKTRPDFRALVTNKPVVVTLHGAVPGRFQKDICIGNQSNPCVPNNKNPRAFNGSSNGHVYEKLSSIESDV

As a reminder, the IC50 is the concentration that gives 50% inhibition.

Each structure is given as a SMILES string.

This assay concerns the target Glutamate receptor ionotropic, NMDA 2B (Rattus norvegicus, UniProt Q00960). Description: Antagonist activity at NR2B NMDA receptor in Wistar rat neocortical cells assessed as inhibition of NMDA-evoked elevation of intracellular calcium concentration. The format is functional, cell-based. An outline of the steps:
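Rat primary neocortical cultures (trypsinised cortex, poly-D-lysine coated wells, glial proliferation stopped with […], serum-free N2 medium) used after 3-10 days in vitro. Compound added (<0.1% DMSO), 5 min baseline, then 40 µM NMDA and 5 min fluorescence recording.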
(In general: Calcium assays in cells follow changes in intracellular calcium, usually with a dye or a luminescent sensor.)

With `O=C(/C=C/c1ccc(O)cc1)N1CCC(Cc2ccccc2)CC1`, the IC50 was found to be 131 nM.
